{
  "sequences": {"note": "Amino acid sequences for entries named in this document (tags omitted). A change or cut given only in a name is not applied to a line headed by its entry.", "UniProt Q15761": "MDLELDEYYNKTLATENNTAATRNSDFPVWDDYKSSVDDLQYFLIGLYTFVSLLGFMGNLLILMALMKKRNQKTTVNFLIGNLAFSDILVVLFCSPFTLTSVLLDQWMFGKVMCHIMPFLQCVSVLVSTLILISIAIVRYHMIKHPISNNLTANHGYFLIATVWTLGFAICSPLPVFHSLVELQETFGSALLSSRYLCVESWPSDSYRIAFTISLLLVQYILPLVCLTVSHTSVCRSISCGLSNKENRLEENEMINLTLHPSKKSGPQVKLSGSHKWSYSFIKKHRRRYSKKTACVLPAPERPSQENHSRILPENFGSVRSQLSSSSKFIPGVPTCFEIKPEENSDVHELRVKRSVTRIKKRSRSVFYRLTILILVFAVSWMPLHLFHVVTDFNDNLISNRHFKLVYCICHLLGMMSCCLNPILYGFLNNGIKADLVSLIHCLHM"},
  "source": "patent US20050019869A1",
  "about": "“Chimeric neuropeptide Y receptors” (priority 2000, published 2005)",
  "key": {"[1]": {"molecular_target": "T1, Human NPY5ΔY1IC3 chimera (human, UniProt Q15761 1-445)", "T1 construct": "Expressed in Sf9 cells; assayed in purified membranes; also called hNPY5ΔY1IC3; NPY5 Y1IC3", "T1 chain": "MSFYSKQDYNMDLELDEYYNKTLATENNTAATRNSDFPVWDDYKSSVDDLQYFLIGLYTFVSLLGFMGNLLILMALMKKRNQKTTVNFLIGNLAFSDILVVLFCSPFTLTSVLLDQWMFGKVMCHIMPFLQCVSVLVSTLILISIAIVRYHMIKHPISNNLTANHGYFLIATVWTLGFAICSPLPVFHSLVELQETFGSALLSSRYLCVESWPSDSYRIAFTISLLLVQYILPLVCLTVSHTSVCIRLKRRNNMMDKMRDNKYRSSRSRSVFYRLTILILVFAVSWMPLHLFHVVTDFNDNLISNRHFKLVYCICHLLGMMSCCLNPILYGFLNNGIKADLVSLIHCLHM", "test": "displacement of 0.050 nM [125I]PYY (porcine) from Sf9 membranes, filtration"}, "[2]": {"molecular_target": "T2, Human NPY5ΔY1CT chimera (human)", "T2 construct": "Human NPY5 with its C-terminal intracellular domain replaced by that of human Y1; Expressed in Sf9 cells; assayed in purified membranes", "T2 chain": "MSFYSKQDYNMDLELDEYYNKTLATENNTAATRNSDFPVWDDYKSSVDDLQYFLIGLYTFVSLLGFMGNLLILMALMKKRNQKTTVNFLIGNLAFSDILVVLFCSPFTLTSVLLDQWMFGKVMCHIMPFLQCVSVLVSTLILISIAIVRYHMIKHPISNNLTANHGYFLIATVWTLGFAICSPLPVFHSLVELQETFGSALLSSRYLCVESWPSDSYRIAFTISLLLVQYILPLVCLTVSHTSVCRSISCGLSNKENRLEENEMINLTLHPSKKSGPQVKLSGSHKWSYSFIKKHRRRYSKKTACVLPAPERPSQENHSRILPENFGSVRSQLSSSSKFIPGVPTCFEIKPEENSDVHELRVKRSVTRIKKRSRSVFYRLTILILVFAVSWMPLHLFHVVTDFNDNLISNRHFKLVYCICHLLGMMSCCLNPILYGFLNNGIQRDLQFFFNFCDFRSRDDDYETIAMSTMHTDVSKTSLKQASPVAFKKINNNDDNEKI", "test": "displacement of 0.050 nM [125I]PYY (porcine) from Sf9 membranes, filtration"}},
  "data": [
    {"binder": "PAEDMARYYSALRHYINLITRQRY (peptide, UniProt P01303 41-64, looked up, range 13-36; also called HNPY 13-36)", "note": "[human NPY 13-36]", "values": [
      {"measurement": "Ki", "setting": "[1]", "result": 10.3, "unit": "nM"},
      {"measurement": "Ki", "setting": "[2]", "result": 23.4, "unit": "nM"}
    ]}
  ]
}
